From article PMC7293020 (Nucleic Acids Research, 2020)

Target: T1, Escherichia coli exonuclease I (ExoI) (Escherichia coli, UniProt P04995 1-475)
T1 sequence (looked up): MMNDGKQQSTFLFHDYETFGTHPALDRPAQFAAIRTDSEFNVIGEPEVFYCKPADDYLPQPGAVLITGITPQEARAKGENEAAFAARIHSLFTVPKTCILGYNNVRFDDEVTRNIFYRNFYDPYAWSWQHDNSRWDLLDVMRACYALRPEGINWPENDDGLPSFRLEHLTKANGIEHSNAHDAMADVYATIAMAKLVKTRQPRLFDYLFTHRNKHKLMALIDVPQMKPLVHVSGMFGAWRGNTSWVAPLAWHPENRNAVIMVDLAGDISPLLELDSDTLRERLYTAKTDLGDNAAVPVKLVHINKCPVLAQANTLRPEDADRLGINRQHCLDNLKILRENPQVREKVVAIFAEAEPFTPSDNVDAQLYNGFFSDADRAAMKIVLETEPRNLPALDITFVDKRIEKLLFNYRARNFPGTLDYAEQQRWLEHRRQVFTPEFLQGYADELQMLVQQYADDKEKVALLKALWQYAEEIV
Assay: ITC

B1: Escherichia coli single-stranded DNA-binding protein (EcSSB) (natural protein, UniProt P0AGE0 1-178, looked up)
chain: MASRGVNKVILVGNLGQDPEVRYMPNGGAVANITLATSESWRDKATGEMKEQTEWHRVVLFGKLAEVASEYLRKGSQVYIEGQLRTRKWTDQSGQDRYTTEVVVNVGGTMQMLGGRQGGGAPAGGNIGGGQPQGGWGQPQQPQGGNQFSGGAQSRPQQSAPAAPSNEPPMDFDDDIPF
  binding result: binds
